Data as given in PMC10630842, “Impact of dietary plant flavonoids on 7,8‐dihydroxyflavone transepithelial transport in human intestinal Caco‐2 cells” (Food Science & Nutrition, 2023).

System: Caco‐2 monolayers
Assay: Bi-directional transepithelial transport of 7,8-DHF across Caco-2 monolayers with flavonoids screened as P-gp inhibitors (Papp, ER); also: key: + indicates that the inhibitor has a significant effect on 7,8‐DHF transport; − indicates that the inhibitor has no significant effect on 7,8‐DHF transport
Type: in vitro ADME, human
Details: flavonoid equimolar with 7,8‐DHF 10 μmol/L, verapamil 100 μmol/L
Description: For this experiment, the 7,8‐DHF sample was first dissolved in a small amount of dimethyl sulfoxide (DMSO) and then diluted with HBSS to a working concentration of 10 μmol/L. The final DMSO concentration in the working solution was controlled to be less than 0.5%. […] Flavonoid samples were added to the AP and BL sides at equimolar concentrations with 7,8‐DHF (the sample concentration in HBSS solution was 10 μmol/L). Prior to transport, dietary flavonoids were pretreated on the AP side for 30 min. Then, these flavonoid reagents were removed, and a 0.5 mL HBSS solution containing various dietary flavonoids with 7,8‐DHF (concentration of 10 μmol/L) was added to the AP side, while 1.5 mL of blank HBSS was added to the BL side. Conversely, 1.5 mL of HBSS solution containing various dietary flavonoids with 7,8‐DHF (10 μmol/L) was added to the BL side, and 0.5 mL of blank HBSS was added to the AP side.
The magnitude of the apparent permeability coefficients (P app, cm/s) and efflux ratio (ER) reflects the ability of the test substance to pass through the monolayer cells and the speed of absorption.
(4) ER=PappAB/PappBA where P app AB is the apparent permeability coefficient for AP → BL transport, and P app BA is the apparent permeability coefficient for BL → AP transport.
Effect of different concentrations of specific flavonoids on 7,8‐DHF transepithelial transport was investigated. […]

COc1ccc([C@@H]2CC(=O)c3c(O)cc(O)cc3O2)cc1O [Hesperetin, hesperetin]
Modulatory effect on 7,8‐DHF transport: +
